Yeast mating assay 2: variants of the scFv Ab-95

The measurements come from Engelhart et al. 2022 (doi:10.1038/s41597-022-01779-4) through the FLAb antibody collection.

Binding partner: SARS-CoV-2 spike HR2 peptide, sequence PDVDLGDISGINAS.

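Phage display of a naive human antibody library on the peptide gave the parent. The library (AAYL52) carries one to three amino acid substitutions per variant, with no insertions or deletions. In AlphaSeq, yeast of one mating type display the scFv and yeast of the other type display the target. Mating (16 h, 30 °C) was followed by selection of diploids and sequencing of their barcodes. Scores were corrected for input abundance and mapped to Kd with protein pairs of known affinity run in the same pool. Each pool was mated in three replicate cultures.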

Parent: Ab-95, a human scFv built as VH, a 15-residue (Gly4Ser)3 linker, VL. Only the CDRs of the light chain vary.
VH: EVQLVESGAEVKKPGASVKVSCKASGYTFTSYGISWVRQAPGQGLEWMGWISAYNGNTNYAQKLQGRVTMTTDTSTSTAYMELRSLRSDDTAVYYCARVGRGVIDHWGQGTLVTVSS
VL: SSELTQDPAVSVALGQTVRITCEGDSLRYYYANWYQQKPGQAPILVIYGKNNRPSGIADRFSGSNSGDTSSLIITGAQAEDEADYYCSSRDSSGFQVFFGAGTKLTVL

Positions count from residue 1 of the parent VL; P54F puts F in place of P.
All variants listed here change D91 of the VL, counted from its first residue.
Values are apparent Kd, the geometric mean of the replicates that gave a signal; lower means stronger binding.
"nd" marks a missing value. The strain was present, yet no cells mated with the target were sequenced in any replicate, which points to weak or no binding.
Three control strains display no target. For library AAYL52, 28% of the pairings with them gave a signal, with a median of 8.2 µM and one signal in twenty below 800 nM, so weak values seen in few replicates may be background. The control count says in how many pairings with the empty strains this scFv gave a signal.
Parent in this assay: reference entry 200 nM, copy in this library 180 nM.

P54F/R90T/D91A: 9.3 µM (1 of 3 replicates; controls 2 of 9).
Y30N/R53F/D91Y: 100 nM (3 of 3 replicates; controls 3 of 9).
D91N: 2.0 µM (1 of 3 replicates; controls 2 of 9).
D25W/D91L/V97G: 8.9 µM (3 of 3 replicates; controls 2 of 9).
D91T: 680 nM (3 of 3 replicates; controls 2 of 9).
D25C/D91K/F95A: nd (0 of 3 replicates; controls 2 of 9).
K50S/N52L/D91L: 4.4 µM (2 of 3 replicates; controls 3 of 9).
Y29H/D91R/F98L: 170 nM (3 of 3 replicates; controls 2 of 9).
N51C/R53E/D91C: 15 µM (2 of 3 replicates; controls 3 of 9).
N52V/D91Y/G94A: 4.4 µM (1 of 3 replicates; controls 1 of 9).
D91E/S92I/F95P: nd (0 of 3 replicates; controls 0 of 9).
R53C/P54K/D91A: 24 µM (1 of 3 replicates; controls 4 of 9).
A32W/D91A/G94K: nd (0 of 3 replicates; controls 2 of 9).
A32V/D91R: 4.0 µM (3 of 3 replicates; controls 2 of 9).
S55M/D91F/S93W: 21 µM (1 of 3 replicates; controls 0 of 9).
R28Y/N52H/D91H: 6.2 µM (3 of 3 replicates; controls 4 of 9).
S89Y/D91N/Q96V: 280 nM (3 of 3 replicates; controls 1 of 9).
Y29K/D91Y/G94P: 1.9 µM (1 of 3 replicates; controls 1 of 9).
D91P: 5.2 µM (2 of 3 replicates; controls 3 of 9).
N33R/K50T/D91H: 7.5 µM (2 of 3 replicates; controls 1 of 9).
E23N/D91H/Q96W: 170 nM (3 of 3 replicates; controls 4 of 9).
L27A/S55C/D91S: 5.1 µM (1 of 3 replicates; controls 1 of 9).
G24H/A32P/D91A: 3.7 µM (2 of 3 replicates; controls 0 of 9).
S88K/R90F/D91E: 3.0 µM (1 of 3 replicates; controls 1 of 9).
S26W/Y29W/D91H: 3.7 µM (1 of 3 replicates; controls 4 of 9).
D91F: 140 nM (3 of 3 replicates; controls 2 of 9).
Y29Q/D91K: nd (0 of 3 replicates; controls 0 of 9).
R53L/P54Q/D91Y: 6.4 µM (1 of 3 replicates; controls 5 of 9).
R53T/D91T/F98Q: 3.5 µM (2 of 3 replicates; controls 3 of 9).
P54K/S88W/D91A: 3.6 µM (3 of 3 replicates; controls 1 of 9).
L27I/N52T/D91A: 14 µM (3 of 3 replicates; controls 2 of 9).
G24R/A32N/D91E: nd (0 of 3 replicates; controls 2 of 9).
G24N/G49C/D91F: 520 µM (1 of 3 replicates; controls 2 of 9).
Y30P/K50R/D91N: 1.4 µM (3 of 3 replicates; controls 0 of 9).
K50R/R90K/D91M: 550 nM (3 of 3 replicates; controls 1 of 9).
R90M/D91S/F95A: 34 µM (2 of 3 replicates; controls 1 of 9).
R53D/D91C/S92Y: 740 nM (1 of 3 replicates; controls 0 of 9).
Y31I/N33R/D91N: 7.4 µM (2 of 3 replicates; controls 6 of 9).
N52R/S55C/D91Y: 7.5 µM (3 of 3 replicates; controls 3 of 9).
G24N/D91M: 3.5 µM (1 of 3 replicates; controls 0 of 9).
P54D/D91H/Q96L: 4.6 µM (2 of 3 replicates; controls 2 of 9).
G49L/D91Q/G94Q: 130 µM (1 of 3 replicates; controls 2 of 9).
P54K/D91M/S92A: 26 µM (2 of 3 replicates; controls 1 of 9).
Y30V/D91Y/S92T: 5.8 µM (1 of 3 replicates; controls 0 of 9).
G49P/S88G/D91K: nd (0 of 3 replicates; controls 1 of 9).
R53K/D91L/F98T: 8.1 µM (1 of 3 replicates; controls 3 of 9).
K50H/S88H/D91C: 640 nM (3 of 3 replicates; controls 2 of 9).
A32Y/D91S: 9.9 µM (2 of 3 replicates; controls 7 of 9).
S55A/R90M/D91Y: nd (0 of 3 replicates; controls 0 of 9).

From the list, the first 4 with no signal in any replicate:

{"changes": "D25C/D91K/F95A", "apparent Kd": "nd", "replicates with signal": "0/3", "control signals": "2/9"}
{"changes": "D91E/S92I/F95P", "apparent Kd": "nd", "replicates with signal": "0/3", "control signals": "0/9"}
{"changes": "A32W/D91A/G94K", "apparent Kd": "nd", "replicates with signal": "0/3", "control signals": "2/9"}
{"changes": "Y29Q/D91K", "apparent Kd": "nd", "replicates with signal": "0/3", "control signals": "0/9"}